Test results reported in patent US20260042834A1, “ANTI-CORTICOTROPIN-RELEASING HORMONE ANTIBODIES AND POLYCYSTIC OVARY SYNDROME” (HBM ALPHA THERAPEUTICS, INC., priority 2022, published 2026).

B1: PR005657: ΔPTM variant of Series 1 mAb PR004290; HCDR2 54DA55, LCDR1 36NS37 (antibody)
heavy: EVQLVESGGVLVQPGGSLRLSCAASGFTFSSYWMTWVRQAPGKGLEWVANIKQDASEKYYVDSVKGRFTISRDNAKNSLFLQMNSLRAEDTAVYYCARTLIFDYWGQGTLVTVSSASTKGPSVFPLAPSSKSTSGGTAALGCLVKDYFPEPVTVSWNSGALTSGVHTFPAVLQSSGLYSLSSVVTVPSSSLGTQTYICNVNHKPSNTKVDKKV[human IgG1 Fc not listed]
light: DIVMTQSPLSLPVTPGEPASISCRSSQSLLHSTGYNSLEWYLQKPGQSPQLLIYLGSNRASGVPDRFSGSGSGTDFTLKISRVEAEDVGIYYCMQTLQTPITFGQGTRLEIKRTVAAPSVFIFPPSDEQLKSGTASVVCLLNNFYPREAKVQWKVDNALQSGNSQESVTEQDSKDSTYSLSSTLTLSKADYEKHKVYACEVTHQGLSSPVTKSFNRGEC
B2: PR301777: Series 5 anti-CRH mAb from immunized wildtype mice, human IgG1 wildtype Fc (antibody)
heavy: EMKLEESGGGLVQPGGSMKLSCVASGFTFSNYWMNWVRQSPEKGLEWVAEIRLKSNNYATHYAESVKGRFTISRDDSKSGVYLQMNNLGAEDTGIYYCTVGTLVYWGQGTLVTVSAASTKGPSVFPLAPSSKSTSGGTAALGCLVKDYFPEPVTVSWNSGALTSGVHTFPAVLQSSGLYSLSSVVTVPSSSLGTQTYICNVNHKPSNTKVDKKV[human IgG1 Fc not listed]
light: DIVLTQSPASLAVSLGQRATISCRASQSVSTSTYNYMHWFQQKPGQPPKLLIKFASNLESGVPARFSGSGSGTDFTLNIHPVEEEDTATFYCQHSWEIPYTFGGGTKLEIKRTVAAPSVFIFPPSDEQLKSGTASVVCLLNNFYPREAKVQWKVDNALQSGNSQESVTEQDSKDSTYSLSSTLTLSKADYEKHKVYACEVTHQGLSSPVTKSFNRGEC

Assays:
human CRHR2 = assay: CRH-induced luciferase reporter blocking assay, CHO-CRE-hCRHR2 cells; format: cell-based; conditions: CHO-CRE-hCRHR2 cells, 0.1 nM CRH
Method: (§1) To create CHO-CRE-hCRHR1, -hCRHR2, -mCRHR1, and -mCRHR2 reporter cell lines, pcDNA3.1-hCRHR1, -hCRHR2, -mCRHR1, and -mCRHR2 were introduced into CHO-CRE cells established above by electroporation as described above. Selection antibiotics hygromycin at 500 μg/ml and G418 at 1,000 μg/ml were employed. Individual established stable cell lines were characterized by both CRH and forskolin stimulation.
Activated GPCR proteins increase production of the intracellular cAMP. CHO-CRE-human CRHR1 stable clone 11 was generated by introduction of pcDNA3.1-human CRHR1 under the selection of G418 and hygromycin. Human CRHR1 expression in CHO-CRE-hCRHR1 Clone 11 was confirmed by flow cytometry (data not shown). To further validate that the cell line was functional, CHO-CRE-hCRHR1 Clone 11 cells were treated with forskolin and CRH peptide. […] Subsequently CHO-CRE-hCRHR2 Clone 32, -mCRHR1 Clone 22, and -mCRHR2 Clone 8 cell lines were established using similar methodology and validated with CRH treatment (data not shown).
Blocking CRHR1 by small molecules or neutralization of CRH peptide can reduce luciferase expression if the CRH-CRHR1 system works in CHO-CRE-hCRHR1 cells. Antalarmin, a small molecule CRHR1 antagonist, blocked CRH-mediated luciferase expression in CHO-CRE-hCRHR1 Clone 11 (data not shown). Furthermore, sheep anti-CRH polyclonal antibody reduced CRH-mediated luciferase expression in these cells (data not shown). Likewise, sheep anti-CRH polyclonal antibody blocked CRH-mediated luciferase expression in CHO-CRE-hCRHR2, CHO-CRE-mCRHR1, and CHO-CRE-mCRHR2 cells (data not shown).
(§2) Cells were digested by trypsin-EDTA (Life technologies, Cat #:12604-013), centrifuged at 1,000 rpm for 5 min, resuspended in growth medium, counted using a cell counter, seeded at a concentration of 5,000 cells per 100 μl in 96-well flat plates, and incubated overnight. 50 μl of 4× serially diluted antibodies was added (8 points, 1/4 diluted by growth medium) to plates containing CHO-CRE-hCRHR1 cells, and 50 μl of 4×CRH (4× is 2 nM, final is 0.5 nM) was added. Similarly, 4×CRH (4× is 0.4 nM, final is 0.1 nM) was added to CHO-CRE-hCRHR2 cells and CHO-CRE-mCRHR1 cells, and 4×CRH (4× is 20 nM, final is 5 nM) was added to CHO-CRE-mCRHR2 cells. Next, plates were incubated 4-6 hours at 37° C. in a CO2 incubator. 60 μl of culture medium was removed, to which was added 60 μl of Bio-Glo luciferase, followed by incubation for 10 min at RT. Plates were read in a luciferase plate reader (EnVision, PerkinElmer).

mouse CRHR2 = assay: CRH-induced luciferase reporter blocking assay, CHO-CRE-mCRHR2 cells; format: cell-based; conditions: CHO-CRE-mCRHR2 cells, 5 nM CRH
Method: as §1, with “stimulation. […]” for “stimulation.”
as §2

biotinylated CRH = target: T1, biotinylated CRH (Homo sapiens, UniProt P06850); assay: Affinity determination with Octet; format: binding
T1 construct: purchased GL Biochem 784751
T1 sequence (P06850 154-194): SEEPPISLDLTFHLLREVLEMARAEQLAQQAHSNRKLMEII
Method: Octet® Red 96e was used for affinity measurement. Octet® running buffer was prepared by diluting kinetics buffer 10× (Fortebio, Cat #18-1105) in PBS according to the manufacturer's instructions. Two columns of SA sensors (Fortebio, Cat #18-5019) were hydrated in running buffer for 10 mins, one for ligand capturing and the other for reference. Antibodies were 2-fold diluted and added into a 96-well plate. 30 nM biotinylated CRH (GL Biochem, Cat #784751) was captured by the first column of SA sensors for 20 seconds, while reference sensors were dipped into buffer wells. After a 60-second baseline step, sensors were dipped into analyte and buffer wells successively, with the association and dissociation time of 180 seconds and 800 seconds, respectively. Sensors were regenerated in glycine pH1.5 (Cytiva, Cat #BR-1003-54) before the next cycle. […] Signals of reference wells and reference sensors were subtracted by selecting “Double reference” before data fitting.

Row | Molecule | IC50 (human CRHR2) [nM] | IC50 (mouse CRHR2) [nM] | kdis (biotinylated CRH) [s⁻¹]
1 | B1 | 16.2 | 8.16 | 4.67e-05
2 | B2 | 1.43 | 3.27 | 3.48e-07
